## Antibody variant affinities, Ab-91 heavy chain, assay 2

From the AlphaSeq antibody data of Engelhart et al. 2022 (doi:10.1038/s41597-022-01779-4), copy in the FLAb collection.

Target: peptide PDVDLGDISGINAS, taken from heptad repeat 2 (HR2) of SARS-CoV-2 spike.

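AAYL51 was designed without a model: most single CDR substitutions and a random sample of double and triple ones. Affinity was read by AlphaSeq, a pooled yeast mating assay with surface-displayed partners. The frequency of each diploid, read from paired DNA barcodes, reflects how well the two displayed proteins bind. Scores were corrected for input abundance and mapped to Kd with protein pairs of known affinity run in the same pool. Mating was done three times.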

Parent scFv Ab-91: VL joined to VH by three GGGGS repeats. Changes lie in the heavy chain CDRs alone.
VL: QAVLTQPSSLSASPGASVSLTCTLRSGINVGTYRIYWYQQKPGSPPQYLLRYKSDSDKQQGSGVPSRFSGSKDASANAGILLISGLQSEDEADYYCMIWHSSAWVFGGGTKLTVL
VH: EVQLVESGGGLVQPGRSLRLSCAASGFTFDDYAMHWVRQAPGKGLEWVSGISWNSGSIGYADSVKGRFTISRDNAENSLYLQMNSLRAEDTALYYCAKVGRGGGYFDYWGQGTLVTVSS

Variants are written as CDR1, CDR2 and CDR3 of the heavy chain (limits as in the source). Parent: GFTFDDYAMH, GISWNSGSIGYADSVK, VGRGGGYFDY. The read-out is the apparent dissociation constant on a log10 scale (nM): the lower, the stronger. A mean of the replicates is given; it leaves out those without a signal. A pair that was not seen in that replicate is written "n.d."; this usually means weak binding, but a binder can also be missed.

CDR-H1,CDR-H2,CDR-H3,"log10 Kd, replicates","log10 Kd (nM), mean",control signals
GFTFDDYAMH,GISWNSGSIGNAMSVK,VGRCGGYFDY,5.97 / 5.28 / n.d.,5.62,4 of 9 (4.64)
GFTFDDYAMH,GISWNSGSIGYADSVR,VGRGGGPEDY,5.53 / n.d. / n.d.,5.53,1 of 9 (5.09)
GFTFDDYAMH,GISWNSGSIGYAQSVK,VGRGGGYFLY,4.48 / n.d. / n.d.,4.48,2 of 9 (4.01)
GFTFDDYAMH,GITWNSGSYGYADSVK,VGRGGGYPDY,4.63 / 4.49 / n.d.,4.56,5 of 9 (4.87)
GFTFDDYAMP,GISWNSGSIGYADSVK,VGRGGGYFWY,n.d. / 5.48 / 4.45,4.97,4 of 9 (4.25)
GFTFDGWAMH,GISWNSGSIGYADSVK,VGRLGGYFDY,n.d. / n.d. / 4.13,4.13,0 of 9
GFTFDDYAMH,GISWNSGSIGQADSVK,VGRVGGCFDY,3.09 / 2.75 / 1.81,2.55,0 of 9
GFTHDDYAMH,GISWNSGSIGYADSVK,VGVGGGYFIY,5.14 / n.d. / n.d.,5.14,0 of 9
PFTFDDYAMH,IISWNSGSIGYADSKK,VGRGGGYFDY,n.d. / n.d. / n.d.,n.d.,1 of 9 (2.70)
GFTFDDYAHH,GISWNSGSIGYADSVK,VGRGGGEFDY,n.d. / n.d. / n.d.,n.d.,0 of 9
GFTFDCYEMH,GISWNSASIGYADSVK,VGRGGGYFDY,n.d. / n.d. / n.d.,n.d.,1 of 9 (3.50)
GHTFDDYAMH,GISWNSGSIGYADSVK,VGREGGIFDY,n.d. / n.d. / n.d.,n.d.,2 of 9 (3.30)
GFTFDPYAMH,GISWNSGSIGYADSVK,NGRGKGYFDY,n.d. / 4.84 / n.d.,4.84,0 of 9
GFTFDDYAPH,GIEWNSGGIGYADSVK,VGRGGGYFDY,4.54 / 5.82 / 5.25,5.21,8 of 9 (5.21)
MFTFDDYAML,GISWNSGSIGYADSVK,VGRGGGYLDY,3.94 / n.d. / n.d.,3.94,3 of 9 (4.28)
GFTFDDYAMY,GISWNSGSIGYAASVK,VGRGGGYFDY,n.d. / n.d. / n.d.,n.d.,0 of 9
GFTFDDYAMH,GISWNSGSEGYADYVK,VGRGGAYFDY,n.d. / n.d. / n.d.,n.d.,1 of 9 (4.18)
GFTFDDYAMH,AIPWNSGSIGYADSVW,VGRGGGYFDY,n.d. / n.d. / n.d.,n.d.,0 of 9
GFVFQDYAMH,GISWNVGSIGYADSVK,VGRGGGYFDY,2.10 / 2.14 / 2.12,2.12,3 of 9 (4.69)
GFTFDDYAMH,GISCNSNSIGYADSDK,VGRGGGYFDY,n.d. / 4.91 / n.d.,4.91,1 of 9 (3.52)
GFTFDDYAMH,GISWNSGSIGYAESVK,FGRGGGYFHY,n.d. / n.d. / n.d.,n.d.,0 of 9
GFCFDDYAMH,QISWNSGSFGYADSVK,VGRGGGYFDY,n.d. / n.d. / n.d.,n.d.,0 of 9
GFTHDDYAMH,GISWNTGSIGYADSVK,VGRNGGYFDY,4.88 / 6.41 / 4.62,5.30,5 of 9 (4.51)
GFTFDDYAMH,GISWNSQSGGYADSVK,VGRGGQYFDY,n.d. / n.d. / n.d.,n.d.,0 of 9
GFTFDDYAME,NISWNSGSIGYAFSVK,VGRGGGYFDY,n.d. / n.d. / n.d.,n.d.,0 of 9
GFTFDDYAMH,GISWNSGLIGYADSVK,TGRGGGYFPY,5.66 / n.d. / n.d.,5.66,1 of 9 (4.54)
GFLFDDYAMH,GISWNSGSIGYADSVK,VGRGGTYQDY,n.d. / n.d. / n.d.,n.d.,1 of 9 (3.49)
RFTFDDYAMH,GISWNSGSIGGADSDK,VGRGGGYFDY,n.d. / 5.90 / 4.88,5.39,7 of 9 (4.49)
GFTFDDYAGH,GISWNSGYIGYADSVK,VGRGGGYFDY,n.d. / 5.28 / n.d.,5.28,0 of 9
GFTFDDYWMH,GLSWNSGSIGYADSVK,VGRNGGYFDY,6.50 / 4.92 / n.d.,5.71,4 of 9 (4.98)
GFGNDDYAMH,GISWNSGSITYADSVK,VGRGGGYFDY,n.d. / n.d. / n.d.,n.d.,1 of 9 (3.44)
GFTFDDYAMH,GISWNSGSIGYFDSVK,VGRGGWYFDY,n.d. / n.d. / n.d.,n.d.,0 of 9
GFTFDDYACH,GISWNSGSIGVAVSVK,VGRGGGYFDY,n.d. / 4.32 / n.d.,4.32,1 of 9 (2.76)

The opening 5 entries, copied out:

CDR-H1,CDR-H2,CDR-H3,"log10 Kd, replicates","log10 Kd (nM), mean",control signals
GFTFDDYAMH,GISWNSGSIGNAMSVK,VGRCGGYFDY,5.97 / 5.28 / n.d.,5.62,4 of 9 (4.64)
GFTFDDYAMH,GISWNSGSIGYADSVR,VGRGGGPEDY,5.53 / n.d. / n.d.,5.53,1 of 9 (5.09)
GFTFDDYAMH,GISWNSGSIGYAQSVK,VGRGGGYFLY,4.48 / n.d. / n.d.,4.48,2 of 9 (4.01)
GFTFDDYAMH,GITWNSGSYGYADSVK,VGRGGGYPDY,4.63 / 4.49 / n.d.,4.56,5 of 9 (4.87)
GFTFDDYAMP,GISWNSGSIGYADSVK,VGRGGGYFWY,n.d. / 5.48 / 4.45,4.97,4 of 9 (4.25)

Parent in this assay: reference entry 1.86, copy in this library 0.88. Empty control strains, which show no peptide, gave a signal in 21% of pairings with library AAYL51; the median was 4.54 and 95% of these signals were weaker than 3.26. No background was subtracted. The control count says in how many pairings with the empty strains this scFv gave a signal, with their mean in brackets.